Where a name gives a salt, the structure may show the parent alone. Read-outs that look alike come from different tables or passages of the source.
Compound: C=C[C@H]1C[N@@]2CC[C@H]1C[C@H]2[C@H](O)c1ccnc2ccc(OC)cc12 [Quinine Sulfate, cinchonan-9-ol, 6′-methoxy-, (8α,9R)-, sulfate (2:1)]
- QTc (Study 1, B: 324 mg capsule, fed, 0 hours): 397 ms
- QTc (Study 1, B: 324 mg capsule, fed, 2 hours): 397 ms
- QTc (Study 1, B: 324 mg capsule, fed, 4 hours): 396 ms
- QTc (Study 1, B: 324 mg capsule, fed, 6 hours): 402 ms
- QTc (Study 1, B: 324 mg capsule, fed, 12 hours): 400 ms
- QTc (Study 1, B: 324 mg capsule, fed, 24 hours): 400 ms
- QTc (Study 2, C: 324 mg capsule, fasting, 2 hours): 415 ms
- QTc (Study 2, C: 324 mg capsule, fasting, 4 hours): 414 ms
- QTc (Study 2, C: 324 mg capsule, fasting, 6 hours): 411 ms
- QTc (Study 2, C: 324 mg capsule, fasting, 12 hours): 411 ms
- QTc (Study 2, C: 324 mg capsule, fasting, 24 hours): 409 ms
- QTc (Study 2, D: 648 mg (two capsules), fasting, 0 hours): 410 ms
- QTc (Study 2, D: 648 mg (two capsules), fasting, 2 hours): 422 ms
- QTc (Study 2, D: 648 mg (two capsules), fasting, 4 hours): 422 ms
- QTc (Study 2, D: 648 mg (two capsules), fasting, 6 hours): 419 ms
- QTc (Study 2, D: 648 mg (two capsules), fasting, 12 hours): 417 ms
- QTc (Study 2, D: 648 mg (two capsules), fasting, 24 hours): 412 ms
